Measurements from US9670244B2, “Oxysterol compounds and the hedgehog pathway” (THE REGENTS OF THE UNIVERSITY OF CALIFORNIA, priority 2006, dated 2017).

System: Gli-dependent luciferase reporter
Conditions: 48 hours
Procedure: Cells were plated into 24-well plates and transfected the next day with Gli-dependent firefly luciferase and Renilla luciferase vectors and where indicated, Smo or Ptch expression vectors. […] Cells were treated for 48 hours prior to assessing luciferase activity using the Dual Luciferase Reporter Assay System (Promega, Madison, Wis.) according to manufacturer's instructions. Experiments were performed in triplicate and error bars indicate one standard deviation.

SMILES: CC1=C2C[C@H]3[C@@H](CC=C4C[C@@H](O)CC[C@@]43C)[C@@H]2CC[C@]12O[C@@H]1C[C@H](C)CN[C@H]1[C@H]2C [cyclopamine]
- Suppression of Gli-luc reporter activity in Ptch−/− MEFs: suppressed in a dose-dependent manner
